{"source": "patent US20180280465A1", "about": "(EVER Neuro Pharma GmbH, priority 2015, published 2018)", "test_system": "NIH/3T3 murine fibroblasts", "assay": "Resazurin-fibroblast-assay for assessment of cytotoxicity"}
{"compound": "CN1CCc2cccc3c2[C@H]1Cc1ccc(O)c(O)c1-3", "note": "[apomorphine, (6aR)-6-methyl-5,6,6a,7-tetrahydro-4H-dibenzo[de,g]quinoline-10,11-diol]", "values": [{"measurement": "cytotoxic effect / viability of cultivated NIH/3T3 cells", "value": "time and concentration dependent reduction of viability"}]}
